{
  "sequences": {"note": "Sequences of proteins named here, by UniProt entry; tags and fusion partners are left off. Residues count along the entry.", "UniProt G3V928, 20-3944 limits assumed": "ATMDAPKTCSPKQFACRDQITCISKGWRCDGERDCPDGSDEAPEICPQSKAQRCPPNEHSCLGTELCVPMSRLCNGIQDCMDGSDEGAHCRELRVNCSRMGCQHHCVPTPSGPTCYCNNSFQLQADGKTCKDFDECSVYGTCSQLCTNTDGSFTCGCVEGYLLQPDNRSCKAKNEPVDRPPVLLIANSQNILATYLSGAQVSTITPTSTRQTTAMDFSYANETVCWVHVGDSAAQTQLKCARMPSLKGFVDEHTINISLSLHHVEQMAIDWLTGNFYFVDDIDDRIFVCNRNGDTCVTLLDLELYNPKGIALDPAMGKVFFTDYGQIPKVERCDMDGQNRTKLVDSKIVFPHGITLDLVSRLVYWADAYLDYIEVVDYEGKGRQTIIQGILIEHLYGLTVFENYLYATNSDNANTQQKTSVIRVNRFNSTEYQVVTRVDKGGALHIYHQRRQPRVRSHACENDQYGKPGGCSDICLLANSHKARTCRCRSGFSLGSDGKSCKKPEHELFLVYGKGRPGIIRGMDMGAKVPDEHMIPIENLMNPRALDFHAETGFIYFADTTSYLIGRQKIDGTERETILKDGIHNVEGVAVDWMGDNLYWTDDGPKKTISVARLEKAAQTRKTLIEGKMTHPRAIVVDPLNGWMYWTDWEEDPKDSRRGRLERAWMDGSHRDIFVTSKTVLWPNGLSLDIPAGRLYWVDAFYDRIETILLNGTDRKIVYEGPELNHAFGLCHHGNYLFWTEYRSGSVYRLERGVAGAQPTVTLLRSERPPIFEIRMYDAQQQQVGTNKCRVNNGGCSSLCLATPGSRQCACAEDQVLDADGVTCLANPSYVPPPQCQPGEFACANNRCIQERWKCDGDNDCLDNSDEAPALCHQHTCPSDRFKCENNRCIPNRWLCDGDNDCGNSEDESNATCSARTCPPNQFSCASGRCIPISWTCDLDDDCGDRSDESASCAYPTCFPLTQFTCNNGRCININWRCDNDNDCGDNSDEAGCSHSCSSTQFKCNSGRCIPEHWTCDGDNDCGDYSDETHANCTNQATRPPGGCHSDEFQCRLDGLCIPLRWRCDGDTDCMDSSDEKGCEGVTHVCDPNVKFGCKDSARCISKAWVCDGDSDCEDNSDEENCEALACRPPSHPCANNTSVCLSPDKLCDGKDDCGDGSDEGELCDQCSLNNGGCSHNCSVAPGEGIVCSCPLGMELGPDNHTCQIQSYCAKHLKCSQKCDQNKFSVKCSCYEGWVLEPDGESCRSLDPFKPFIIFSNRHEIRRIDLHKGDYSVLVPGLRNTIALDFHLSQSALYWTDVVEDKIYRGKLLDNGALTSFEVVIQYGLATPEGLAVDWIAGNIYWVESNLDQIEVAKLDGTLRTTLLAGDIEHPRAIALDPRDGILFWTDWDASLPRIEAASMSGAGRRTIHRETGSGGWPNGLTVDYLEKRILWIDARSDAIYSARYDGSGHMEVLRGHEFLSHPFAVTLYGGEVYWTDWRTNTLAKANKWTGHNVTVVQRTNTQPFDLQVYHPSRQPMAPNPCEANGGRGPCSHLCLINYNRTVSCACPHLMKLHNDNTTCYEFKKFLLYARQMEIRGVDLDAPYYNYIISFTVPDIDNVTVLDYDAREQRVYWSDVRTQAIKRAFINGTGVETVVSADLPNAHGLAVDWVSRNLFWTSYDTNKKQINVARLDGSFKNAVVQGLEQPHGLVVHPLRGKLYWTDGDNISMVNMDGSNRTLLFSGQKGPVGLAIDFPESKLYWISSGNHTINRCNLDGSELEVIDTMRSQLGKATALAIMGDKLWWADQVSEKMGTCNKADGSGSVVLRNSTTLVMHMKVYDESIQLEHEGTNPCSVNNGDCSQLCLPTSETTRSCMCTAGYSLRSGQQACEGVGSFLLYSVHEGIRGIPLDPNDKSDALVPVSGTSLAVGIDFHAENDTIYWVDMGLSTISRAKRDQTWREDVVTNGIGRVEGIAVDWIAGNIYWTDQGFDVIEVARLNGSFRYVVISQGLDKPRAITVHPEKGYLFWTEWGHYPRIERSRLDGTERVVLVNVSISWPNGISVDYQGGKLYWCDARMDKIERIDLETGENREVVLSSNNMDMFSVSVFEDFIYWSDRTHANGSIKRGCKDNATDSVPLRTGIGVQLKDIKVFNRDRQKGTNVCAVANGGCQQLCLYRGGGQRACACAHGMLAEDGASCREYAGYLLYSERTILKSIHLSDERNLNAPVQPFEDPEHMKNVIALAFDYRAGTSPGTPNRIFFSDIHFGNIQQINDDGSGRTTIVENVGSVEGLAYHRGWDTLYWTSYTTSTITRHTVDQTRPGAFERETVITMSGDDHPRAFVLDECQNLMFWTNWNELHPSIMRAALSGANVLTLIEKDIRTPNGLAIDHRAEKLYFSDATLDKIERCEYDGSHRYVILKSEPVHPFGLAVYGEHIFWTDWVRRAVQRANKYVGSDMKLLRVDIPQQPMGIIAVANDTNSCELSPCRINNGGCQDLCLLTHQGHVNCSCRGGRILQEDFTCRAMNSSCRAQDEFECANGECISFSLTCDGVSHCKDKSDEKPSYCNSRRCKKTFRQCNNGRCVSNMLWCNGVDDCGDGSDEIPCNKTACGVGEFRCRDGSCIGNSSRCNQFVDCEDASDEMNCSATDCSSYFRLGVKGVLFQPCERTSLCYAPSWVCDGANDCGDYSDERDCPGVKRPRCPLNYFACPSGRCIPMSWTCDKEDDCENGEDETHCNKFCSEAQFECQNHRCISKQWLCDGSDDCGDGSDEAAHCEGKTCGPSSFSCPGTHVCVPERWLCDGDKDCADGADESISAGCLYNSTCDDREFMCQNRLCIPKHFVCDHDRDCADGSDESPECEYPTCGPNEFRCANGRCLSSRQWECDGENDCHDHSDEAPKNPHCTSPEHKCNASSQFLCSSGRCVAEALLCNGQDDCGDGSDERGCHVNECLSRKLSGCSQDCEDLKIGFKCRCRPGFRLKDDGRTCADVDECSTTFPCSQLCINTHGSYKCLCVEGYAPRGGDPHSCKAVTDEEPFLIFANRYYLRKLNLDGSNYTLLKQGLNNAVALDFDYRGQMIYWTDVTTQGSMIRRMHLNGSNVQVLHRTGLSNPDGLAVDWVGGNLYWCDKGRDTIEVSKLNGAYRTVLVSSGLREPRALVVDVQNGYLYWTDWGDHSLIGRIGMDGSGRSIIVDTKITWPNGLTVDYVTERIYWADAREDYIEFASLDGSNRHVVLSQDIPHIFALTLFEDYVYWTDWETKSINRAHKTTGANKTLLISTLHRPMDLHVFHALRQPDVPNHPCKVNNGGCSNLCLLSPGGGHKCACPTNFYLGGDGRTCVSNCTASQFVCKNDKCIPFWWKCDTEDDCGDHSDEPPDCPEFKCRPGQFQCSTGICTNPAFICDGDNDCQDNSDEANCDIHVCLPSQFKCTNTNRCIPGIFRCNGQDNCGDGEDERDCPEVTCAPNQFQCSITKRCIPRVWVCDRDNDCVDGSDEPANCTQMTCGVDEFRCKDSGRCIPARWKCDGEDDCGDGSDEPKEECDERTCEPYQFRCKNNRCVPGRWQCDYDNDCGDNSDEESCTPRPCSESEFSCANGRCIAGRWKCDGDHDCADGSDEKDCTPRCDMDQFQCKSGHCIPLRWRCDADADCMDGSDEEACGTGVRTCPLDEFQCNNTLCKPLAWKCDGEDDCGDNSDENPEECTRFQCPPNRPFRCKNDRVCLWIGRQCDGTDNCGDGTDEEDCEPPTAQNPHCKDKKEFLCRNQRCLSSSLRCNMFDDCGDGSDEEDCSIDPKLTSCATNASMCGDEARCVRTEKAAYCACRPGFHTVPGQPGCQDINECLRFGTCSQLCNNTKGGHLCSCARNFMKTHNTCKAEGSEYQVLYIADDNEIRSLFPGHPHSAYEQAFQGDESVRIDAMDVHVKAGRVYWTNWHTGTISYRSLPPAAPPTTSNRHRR", "UniProt G3V928, 3945-4545 partner limits assumed": "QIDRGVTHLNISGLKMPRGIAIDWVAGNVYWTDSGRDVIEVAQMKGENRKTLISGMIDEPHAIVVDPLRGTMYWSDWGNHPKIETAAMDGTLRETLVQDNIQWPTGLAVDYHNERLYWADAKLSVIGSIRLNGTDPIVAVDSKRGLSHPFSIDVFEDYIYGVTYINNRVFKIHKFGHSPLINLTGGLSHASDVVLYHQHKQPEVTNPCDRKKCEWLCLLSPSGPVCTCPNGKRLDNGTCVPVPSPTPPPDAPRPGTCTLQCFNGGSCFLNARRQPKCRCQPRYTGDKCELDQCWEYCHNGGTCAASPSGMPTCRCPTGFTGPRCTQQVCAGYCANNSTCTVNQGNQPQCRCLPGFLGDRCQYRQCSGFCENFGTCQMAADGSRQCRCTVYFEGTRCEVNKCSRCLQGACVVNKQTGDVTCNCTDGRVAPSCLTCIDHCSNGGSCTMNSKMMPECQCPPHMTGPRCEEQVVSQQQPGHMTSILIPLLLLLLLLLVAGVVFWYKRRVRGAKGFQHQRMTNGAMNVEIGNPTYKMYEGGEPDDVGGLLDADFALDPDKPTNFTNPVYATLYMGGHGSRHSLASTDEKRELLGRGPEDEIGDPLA"},
  "source": "patent US20230406906A1",
  "about": "“SERPIN PEPTIDES AND METHODS OF USING THE SAME” (SERPIN PHARMA, LLC, priority 2022, published 2023)",
  "key": {"[1]": {"test_system": "primary adult rat DRG neurons", "assay": "Neurite outgrowth and survival in primary cultures of adult DRG neurons", "format": "cell-based", "protocol": "Neurite outgrowth in primary cultures of adult DRG neurons: Primary DRGs neurons were isolated from adult male Sprague Dawley rats and cultured as previously described for mice with modifications.^53 The DRGs were stripped of their roots and collected in Hanks Buffered Salt Solution (HBSS) on ice. DRGs were enzymatically digested and approximately 4000 DRG neurons were plated in each well of a 12-well tissue culture plate (Thermo Fisher Scientific, Waltham, MA, USA). All DRG neurons were cultured at 37° C. in 5% CO2 for 54 h in DMEM/F12 containing 2% B27 and 1% FBS with vehicle or S[…] (0-500 ng/ml) added every 24 h. Primary cultured DRG neurons were imaged by phase contrast and the viability of cells was assessed by Trypan blue. […] DRG neurons were imaged at 20× and 40× manually, and the longest neurite length per cell was measured in 11 images from multiple wells and separate experiments. […] Quantification was performed in a blinded manner. For all neurite outgrowth measurements, at least 6 individual experiments were performed in duplicate."}, "[2]": {"molecular_target": "T1, LRP1 (Rattus norvegicus, UniProt G3V928)", "T1 construct": "host or cells: rat PC12 cells", "assay": "Cell signaling analysis in PC12 cells (phospho-ERK1/2, phospho-Akt immunoblot)", "format": "cell-based", "protocol": "Cell signaling analysis: Rat PC12 cells were purchased from ATCC (CRL-1721). PC12 cells were maintained in high glucose DMEM (Gibco, USA) containing 10% heat-inactivated FBS (Gibco, USA), 5% HyClone heat-inactivated horse serum (Cytiva, USA), penicillin (100 units/ml) and streptomycin ([…]) in 6-well plates that were pre-coated with 0.01 mg/ml type IV collagen (Sigma-Aldrich, St. Louis, MO, USA). Cells were transferred to serum-free medium (SFM) 4 h prior to adding effectors, and then treated with SP163M (2.4, 24 or 240 nM); EI-tPA (12 nM), NGF (0.36 nM), or vehicle (PBS) for 10 min. In some cases, cells were pre-incubated with the competitive antagonist of LRP1, GST-RAP (150 nM) for 15 min or electroporated using the Rat Neuron Nucleofector Amaxa Kit (Lonza Biosciences) and incubated with siRNA to silence LRP1 expression (siLRP1; M-094191-01-0010, Dharmacon) for 48 h. Control cells were transfected with non-targeting control (NTC) siRNA (NTC; D-001810-10-05, Dharmacon). […] Equal amounts of protein from cell lysates (20 μg), as determined by BCA Protein Assay (ThermoFisher Scientific, Waltham, MA, USA), were subjected to 10% SDS-PAGE and electro-transferred to nitrocellulose membranes. […]"}, "[3]": {"test_system": "C57BL/6J mice", "assay": "Intraplantar capsaicin model of acute nociception", "format": "in vivo", "settings": "male mice, 2 μg/g 1 h before capsaicin, 10 min", "protocol": "For the capsaicin studies, male (n=41) and female (n=37) mice were acclimated to the behavior testing facility for at least 1 h. Capsaicin was dissolved in 20% (2-hydroxypropyl)-β-cyclodextrin (Sigma-Aldrich, St. Louis, MO, USA) solution. […] Subsequently, 10 μl of 2 μg/μl capsaicin solution was injected into the plantar area of left hind paw. Immediately after capsaicin injection, mice were placed in a plexiglass box. Two observers, blinded to treatments, recorded the time spent licking and flinching the left hind paw over 10 min."}, "[4]": {"test_system": "STAT6", "assay": "IL-13 stimulated STAT6 phosphorylation in esophageal EPC2 cells (western blot)", "format": "cell-based, Human", "protocol": "Esophageal EPC2 cells were treated with vehicle (ddw), A1AT or SP163M. Cells were collected at time-points indicated and western blot analysis of phospho-specific STAT6 was analyzed. […] Using CRISPER/CAS9 technology, an LRP1 knockout esophageal EPC2 cell line was created."}, "[5]": {"test_system": "Balb/C mice", "assay": "Eosinophilic esophagitis model using A. alternata as allergen", "format": "in vivo", "settings": "twice weekly over 4 weeks; vs vehicle and vs A1AT at a higher dose", "source_text": "Balb/C mice were repeatedly challenged with a series of the allergen A. alternata over 4 weeks. A. alternata is a common airborne mold associated with eosinophilic inflammation and a variety of allergic diseases, such as rhinitis, asthma and dermatitis, and is an established model that induces allergic reaction at the esophagus. In this model, the allergen challenges lead to an increase in esophageal eosinophilia. SP163M, A1AT or vehicle (control) was given twice weekly over the 4-week period for 8 total treatments. At the end of the study, esophageal sections were stained for the detection of MBP (eosinophilic marker) and quantitated per high power field."}, "[6]": {"test_system": "IκBα", "assay": "TNFα induced phospho-IkBa (Ser32) immunoblot in HaCat cells", "format": "cell-based, human", "settings": "TNF-α", "protocol": "Cells were pretreated with either vehicle or SP163M (100 μg/ml). TSLP was measured in the supernatant via ELISA (p=0.0045 vs. vehicle treated Poly IC induced cells). FIG. 10B: HaCat cells treated as in FIG. 10A were analyzed via the CellTiter-Glo® Luminescent Cell Viability Assay by Promega. The percent change from untreated (no Poly IC) cells were compared between SP163M vs. vehicle treated poly IC induced control (p=0.0068). FIG. 10C: HaCat cells were insulted with TNFα and immunoblotted for phospho-IkBa (Ser32). GAPDH served as a loading control and signal normalization.\nTNFα treatment led to phosphorylation of IκBα (inhibitor of nuclear factor kappa B), which then activated NFκB. Therefore, in a model of skin inflammation, SP163M shut down a key inflammatory pathway (FIG. 10C)."}},
  "data": [
    {"smiles": "CCCC[C@H](NC(=O)[C@H](CC(C)C)NC(=O)[C@H](Cc1ccccc1)NC(=O)[C@@H](NC(=O)[C@H](Cc1ccccc1)NC(=O)[C@@H]1CCCN1C(=O)[C@H](CCCCN)NC(=O)[C@H](CC(N)=O)NC(=O)[C@H](Cc1ccccc1)NC(=O)[C@H](CCCCN)NC(=O)[C@@H](NC(C)=O)C(C)C)C(C)C)C(=O)N[C@H](C(=O)N[C@@H](CCC(=O)O)C(=O)N[C@@H](CCC(N)=O)C(=O)N[C@@H](CC(N)=O)C(=O)N[C@H](C(=O)N[C@@H](CCCCN)C(N)=O)[C@@H](C)O)[C@@H](C)CC", "note": "[SP163M, Ac-VKFNKPFVFLNIeIEQNTK-NH2]", "values": [
      {"measurement": "maximum neurite length (βIII-Tubulin immunofluorescence)", "setting": "[1]; 240 nM, 54 h", "result": "significantly increased maximum neurite length compared to controls"},
      {"measurement": "neuronal survival and neurite sprouting (phase contrast)", "setting": "[1]; within 48 h, vs untreated controls", "result": "induced greater neuronal survival and neurite sprouting compared to untreated controls"},
      {"measurement": "activation of Akt and ERK1/2, with and without RAP", "setting": "[2]; 10 min, 24 or 240 nM, RAP 150 nM pretreatment 15 min", "result": "activated Akt and EKR1/2 in PC12 cells after 10 min that was blocked by the addition of the 39 kDa LRP1 antagonist, RAP"},
      {"measurement": "activation of ERK1/2 in cells transfected with LRP1-specific siRNA", "setting": "[2]; 48 h after transfection", "result": "ERK1/2 was not activated"},
      {"measurement": "capsaicin induced acute pain-related behavior (time spent licking)", "setting": "[3]", "result": "blocked the capsaicin induced acute pain-related behavior"},
      {"measurement": "STAT6 phosphorylation", "setting": "[4]; EPC2 cells, 30 minutes post IL-13 induction", "result": "not in SP163M treated cells"},
      {"measurement": "persistence of the reduction in STAT6 phosphorylation", "setting": "[4]; EPC2 cells, post-treatment", "result": "persisted for several hours post-treatment"},
      {"measurement": "phospho-STAT6 expression in control cells (with LRP1)", "setting": "[4]; EPC2 control cells", "result": "capable of reducing phospho-STAT6 expression"},
      {"measurement": "phosphorylated STAT6 in LRP1 knockout cell line", "setting": "[4]; LRP1 knockout EPC2 cells (CRISPER/CAS9)", "result": "not capable of reducing phosphorylated STAT6"},
      {"measurement": "number of eosinophils infiltrated to the esophagus (MBP, per high power field)", "setting": "[5]", "result": "decreased the number of eosinophils that infiltrated to the esophagus"},
      {"measurement": "phosphorylation of IκBα", "setting": "[6]", "result": "inhibited the phosphorylation of IκBα by TNF-α"}
    ]}
  ]
}
